Source: US4139632A, “Psychotropic 2-trifluoromethyl-10-[3-(3-hydroxy-pyrrolidino)-propyl]-phenothiazine compounds” (Eisai Co., Ltd., priority 1975, dated 1979)

Key:
Assay type in all cases: in vivo
Mouse [1] = assay: Anti-tremorine activity (anti-Parkinson activity)
Method: (§1) Measurement of pharmacological activities are conducted in accordance with the procedures described in the following literatures: […]

Mouse [2] = assay: Inhibitory effect of spontaneous motor activity
Method: (§2) Measurement of pharmacological activities are conducted in accordance with the procedures described in the following literatures:
1) Svensson, T. H. et al

Mouse [3] = assay: Anti-methanphethamine activity (neuroleptic activity)
Method: as §1

Mouse [4] = assay: Anti-writhing effect (analgetic activity)
Method: as §2
Proc. Soc. […] Biol, & Med.,

Compound: Cl.OC1CCN(CCCN2c3ccccc3Sc3ccc(C(F)(F)F)cc32)C1 (centres unmarked) [Compound A, 2-trifluoromethyl-10-[3-(3-hydroxy-pyrrolidino)-propyl]-phenothiazine hydrochloride]
- anti-tremorine activity relative to chlorpromazine (Mouse [1]; compared with chlorpromazine): almost equal to that of chlorpromazine
- intensity of anti-tremorine (anti-Parkinson) activity relative to fluphenazine (Mouse [1]; compared with fluphenazine): 3 - 5 times
- intensity of spontaneous motor activity inhibition relative to chlorpromazine (Mouse [2]; compared with chlorpromazine): 4 - 9 times
- inhibitory effect of spontaneous motor activity relative to fluphenazine (Mouse [2]; compared with fluphenazine): about half of those of fluphenazine
- central nervous depressant activity relative to known compound a (Mouse [2]; overall statement from the table, compared with known compound a): more intense than that of the known compound a
- intensity of anti-methanphethamine activity relative to chlorpromazine (Mouse [3]; compared with chlorpromazine): 4 - 9 times
- anti-methanphethamine activity relative to fluphenazine (Mouse [3]; compared with fluphenazine): about half of those of fluphenazine
- intensity of anti-methanphethamine (neuroleptic) activity relative to known compound a (Mouse [3]; compared with known compound a): 2-4 times
- intensity of anti-writhing activity relative to chlorpromazine (Mouse [4]; compared with chlorpromazine): 4 - 9 times
- intensity of anti-writhing activity relative to fluphenazine (Mouse [4]; compared with fluphenazine): 3 - 5 times
- intensity of anti-writhing (analgetic) activity relative to known compound a (Mouse [4]; compared with known compound a): 2-4 times
